# Ab-14 heavy chain CDR variants: yeast mating affinities

All variants were tested on one target, the spike HR2 peptide PDVDLGDISGINAS (SARS-CoV-2).

Parent scFv Ab-14: VH joined to VL by a (GGGGS)3 linker. Changes lie in the heavy chain CDRs alone.
VH: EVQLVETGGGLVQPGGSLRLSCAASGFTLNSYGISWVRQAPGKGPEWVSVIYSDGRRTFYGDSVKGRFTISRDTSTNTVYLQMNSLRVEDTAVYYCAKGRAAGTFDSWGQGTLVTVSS
VL: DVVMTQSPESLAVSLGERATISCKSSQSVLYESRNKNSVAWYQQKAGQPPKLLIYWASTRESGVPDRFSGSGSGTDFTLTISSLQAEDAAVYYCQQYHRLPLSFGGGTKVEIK

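Phage display of a naive human antibody library on the peptide gave the parent. This is the validation round: designs drawn from the data on random variants, tested in the same kind of assay. Their group label is 14H_GP_Gibbs (GP: Gaussian process model; Gibbs: Gibbs sampling; a sequence that several methods proposed may carry one label only). The scFvs were displayed on barcoded MATa yeast, the peptide on MATalpha yeast. Binding brings cells together so that they mate, and sequencing counts the barcode pairs among the diploids. Scores were corrected for input abundance and mapped to Kd with protein pairs of known affinity run in the same pool. The assay was run in six technical replicates.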

Variants are written as CDR1, CDR2 and CDR3 of the heavy chain (limits as in the source). Parent: GFTLNSYGIS, VIYSDGRRTFYGDSVK, GRAAGTFDS.
Scale: log10 of Kd in nM, estimated from mating counts; low values are strong binders.
"n.d." means that the variant was in the library but no mating with the target was seen in that replicate; the authors take this as a sign of poor binding, and no number exists.
A sequence measured in both rounds can read differently, since the two assays cover different ranges.
Background: pairings of all heavy chain designs with three empty control strains gave a value in 1% of cases (median 2.08, 5th percentile 0.84). Values in that range, when seen in few replicates, are hard to tell from nonspecific mating. The control count says in how many pairings with the empty strains this scFv gave a signal, with their mean in brackets.
The authors averaged sequences with at least three values out of six and counted those with two or fewer as poor binders.

| CDR-H1 | CDR-H2 | CDR-H3 | log10 Kd, replicates | control signals |
|---|---|---|---|---|
| GFSLNSYGIS | VIYSDGRRTFYGDRVK | GNAAGTFDS | 1.16 0.60 0.70 0.81 0.86 1.34 | 0/18 |
| GFQLNEYGIS | VIYSDGRRTFYGDQVK | GQAAGTFDE | 0.95 0.31 0.89 0.92 1.11 1.09 | 1/18 (1.45) |
| GFQLNSYGIS | VIYSDGRRTFYADQVK | GEAAGTFDS | 0.67 0.55 0.13 0.46 1.28 0.25 | 2/18 (1.65) |
| GFSLNEYGIS | VIYSDGRRTFYGDSVK | GRMAGTFDA | 0.07 -0.07 -0.02 -0.30 0.07 -0.13 | 0/18 |
| GFELNSYGIS | VIYSDGRRTFYGDSVK | GQAAGTFDN | n.d. 2.08 n.d. n.d. 2.29 2.05 | 0/18 |
| GFTLNSYGIS | VIYSDGKRTFYGDSVK | GQAAGTFDF | n.d. 1.04 n.d. n.d. n.d. n.d. | 1/18 (0.63) |
| GFPLNSYGIS | VIYSDGKRTFYGDSVK | GRTAGTFDS | 0.91 1.18 n.d. 1.80 1.90 1.47 | 0/18 |
| YFDLNSYGIS | VIYSDGRRTAYGDSVK | GRTAGTFDS | 0.98 1.08 0.86 1.10 1.21 0.83 | 0/18 |
| GFTLNSYGIS | VIYSDGIRTFYGDSVK | GQTAGTFDV | 0.28 0.51 0.37 0.90 0.49 0.82 | 0/18 |
| GFNLNSYGIS | VIYSDGRRTFYADMVK | GQAAGTFDD | n.d. n.d. n.d. n.d. n.d. n.d. | 0/18 |
| GFELNSYGIS | VIYSDGRRTFYGDDVK | GSTAGTFDD | 0.87 0.64 0.42 0.32 0.45 0.55 | 1/18 (2.55) |
| GFGLNSYGIS | VIYSDGRRTFYGDQVK | GRTAGTFDS | n.d. n.d. n.d. n.d. n.d. n.d. | 0/18 |
| GFKLNSYGIS | VIYSDGRRTFYADSVK | GKVAGTFDS | n.d. n.d. 1.25 n.d. 0.49 n.d. | 0/18 |
| MFSLNSYGIS | VIYADGRRTFYGDSVK | GEAAGTFDS | 1.89 n.d. n.d. 0.55 n.d. 2.04 | 0/18 |
| GFTLNSYGIS | VIYSDGRRTFYGDSVK | GQLAGTFDL | n.d. 0.53 0.96 1.45 0.93 0.93 | 1/18 (1.12) |
| GFTLESYGIS | VIYSDGRRTFYQDKVK | GQAAGTFDS | n.d. n.d. n.d. 2.45 1.81 n.d. | 1/18 (1.90) |
| GFSLNSYGIS | VIYSDGRRTFYGDHVK | GRTAGTFDA | 0.69 1.24 1.05 1.74 0.82 0.83 | 0/18 |
| GFNLNSYGIS | VIYSDGRRTFYGDPVK | GKQAGTFDS | n.d. 1.27 n.d. 0.96 1.15 n.d. | 0/18 |
| GFELNSYGIS | VIYSDGRRTFYIDSVK | GRTAGTFDA | n.d. n.d. n.d. n.d. n.d. n.d. | 0/18 |
| GFDLNSYGIS | VIYSDGMRTFYVDSVK | GRVAGTFDS | n.d. n.d. n.d. 2.48 1.28 1.34 | 0/18 |
| KFQLNSYGIS | VIYSDGRRTFYQDSVK | GQTAGTFDS | n.d. n.d. n.d. 0.92 n.d. n.d. | 0/18 |
| GFDLNSYGIS | VIYSDGRRTFYGDNVK | GQEAGTFDS | n.d. 1.30 n.d. n.d. 1.02 0.53 | 0/18 |
| GFTLNSYGIS | VIYSDGRRTFYGDDVK | GNTAGTFDV | 0.34 0.02 0.02 -0.22 0.18 -0.01 | 1/18 (2.03) |
| GFSLNMYGIS | VIYSDGRRTFYGDQVK | GEAAGTFDS | 1.13 0.91 1.21 1.12 0.86 0.93 | 0/18 |
| GFDLNSYGIS | VIYSDGKRTFYGDSVK | GRVAGTFDT | 0.30 0.28 0.22 0.35 0.68 1.00 | 0/18 |
| MFELNSYGIS | VIYADGRRTFYGDSVK | GQAAGTFDK | n.d. n.d. n.d. 1.48 n.d. 2.59 | 0/18 |
| GFVLNEYGIS | VIYSDGRRTFYGDSVK | GTAAGTFDS | 1.10 0.57 0.80 1.60 1.10 1.27 | 0/18 |
| GFQLNNYGIS | VIYSDGRRTFYSDSVK | GEAAGTFDS | 0.99 0.05 0.40 1.06 1.15 1.32 | 0/18 |
| GFELNSYGIS | VIYSDGRRTFYGDSVK | GKEAGTFDN | 0.57 -0.01 0.36 0.57 0.55 0.27 | 0/18 |
| GFDLNSYGIS | VIYSDGRRTFYGDSVK | GKNAGTFDK | 0.66 0.48 0.69 -0.22 0.34 -0.06 | 1/18 (1.21) |
| GFDLNSYGIS | VIYSDGRRTFYADDVK | GRAAGTFDV | 0.83 0.70 0.20 0.81 0.33 0.40 | 0/18 |
| YFDLNSYGIS | VIYSDGRRTFYIDSVK | GQEAGTFDS | 1.85 1.22 1.35 1.29 2.28 1.78 | 1/18 (2.60) |
| GFDLNSYGIS | VIYSDGRRTFYGDSVK | GNTAGTFDD | 0.32 0.48 0.39 0.12 -0.11 0.21 | 0/18 |
| GFGLNDYGIS | VIYSDGRRTFYHDSVK | GRQAGTFDS | 0.49 1.26 1.30 0.42 1.00 0.99 | 0/18 |
| GFQLNSYGIS | VIYSDGRRTFYIDSVK | GDAAGTFDS | 0.82 1.41 1.34 2.24 1.45 1.19 | 1/18 (1.82) |
| GFSLNSYGIS | VIYSDGRRTFYIDSVK | GKAAGTFDQ | 1.97 0.82 n.d. 1.32 n.d. 2.31 | 0/18 |
| GFTLNSYGIS | VIYSDGRRTFYSDSVK | GKHAGTFDT | 0.73 1.31 0.49 0.71 0.66 0.29 | 0/18 |
| GFKLNSYGIS | VIYSDGRRTFYKDSVK | GNEAGTFDS | -0.28 -0.11 -0.60 -0.31 0.64 -0.89 | 0/18 |
| GFTLESYGIS | VIYSDGRRTFYGDKVK | GKTAGTFDS | 0.56 0.43 0.14 0.28 0.58 0.37 | 0/18 |
| GFDLNSYGIS | VIYSDGRRTFYKDSVK | GRTAGTFDK | 0.15 0.09 0.42 0.71 0.57 0.71 | 1/18 (1.92) |

Picked from the list: the 4 lowest averages where every replicate gave a value.

| CDR-H1 | CDR-H2 | CDR-H3 | log10 Kd, replicates | control signals |
|---|---|---|---|---|
| GFKLNSYGIS | VIYSDGRRTFYKDSVK | GNEAGTFDS | -0.28 -0.11 -0.60 -0.31 0.64 -0.89 | 0/18 |
| GFSLNEYGIS | VIYSDGRRTFYGDSVK | GRMAGTFDA | 0.07 -0.07 -0.02 -0.30 0.07 -0.13 | 0/18 |
| GFTLNSYGIS | VIYSDGRRTFYGDDVK | GNTAGTFDV | 0.34 0.02 0.02 -0.22 0.18 -0.01 | 1/18 (2.03) |
| GFDLNSYGIS | VIYSDGRRTFYGDSVK | GNTAGTFDD | 0.32 0.48 0.39 0.12 -0.11 0.21 | 0/18 |

Source: Li et al. 2023 (doi:10.1038/s41467-023-39022-2), MIT Lincoln Laboratory and A-Alpha Bio; data file from the FLAb repository.